Ab-91 heavy chain CDR variants: yeast mating affinities

Target peptide (SARS-CoV-2 spike, HR2 region): PDVDLGDISGINAS

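The parent was found by panning a naive human phage display library on the peptide. The library (AAYL51) carries one to three amino acid substitutions per variant, with no insertions or deletions. The assay is AlphaSeq: two haploid yeast populations carry antibody and antigen on their surface. After mating in shaken culture at 30 °C for 16 h, diploids were selected and their barcode pairs sequenced. Read counts were normalised to the haploid input and turned into Kd by a linear fit to BCL2-family pairs of known affinity, for each replicate. The assay was run in three technical replicates.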

The variants keep the light chain, the linker and the frameworks of Ab-91 (scFv order VL, a 15-residue (Gly4Ser)3 linker, VH).
VL: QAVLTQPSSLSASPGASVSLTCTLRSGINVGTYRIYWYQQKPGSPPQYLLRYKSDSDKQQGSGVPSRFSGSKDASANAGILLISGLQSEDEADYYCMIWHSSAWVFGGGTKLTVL
VH: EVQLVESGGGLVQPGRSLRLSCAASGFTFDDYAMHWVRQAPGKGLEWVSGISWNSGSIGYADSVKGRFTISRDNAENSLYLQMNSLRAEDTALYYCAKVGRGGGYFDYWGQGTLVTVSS

Positions count from residue 1 of the parent VH; W53G puts G in place of W. Numbers give log10(Kd / nM), so 0 is 1 nM and 3 is 1 µM. Smaller is tighter. Replicates are averaged; those with no signal do not enter the mean. An entry "ND" has no value in the source: the pair was not observed among the diploids in that replicate. This suggests poor binding but is not conclusive. In this assay the parent's reference entry averaged 1.86; its copy inside this library read 0.88. Three control strains display no target. For library AAYL51, 21% of the pairings with them gave a signal, with a median of 4.54 and one signal in twenty below 3.26, so weak values seen in few replicates may be background. Also given: how often the same scFv was detected with the empty control strains, with their mean in brackets.

| changes | log10 Kd, replicates | mean log10 Kd (nM) | empty controls |
|---|---|---|---|
| W53G Y105T Y108N | 4.81 / 6.40 / 5.32 | 5.51 | 7 of 9 (5.12) |
| G56P G59M Y108C | ND / ND / ND | ND | 0 of 9 |
| F29M Y60M A61W | ND / ND / ND | ND | 1 of 9 (2.97) |
| D31E A61L D62W | ND / 2.32 / ND | 2.32 | 0 of 9 |
| H35E S55C D107I | 3.38 / ND / 4.84 | 4.11 | 3 of 9 (5.12) |
| G26D M34Q N54Y | 5.32 / ND / ND | 5.32 | 3 of 9 (4.23) |
| K65T G102M Y105T | ND / ND / ND | ND | 0 of 9 |
| F27H F29Q D30T | 4.19 / ND / ND | 4.19 | 3 of 9 (4.90) |
| G26N A61T R101A | 3.28 / ND / ND | 3.28 | 2 of 9 (3.81) |
| T28G F29R S57D | ND / ND / ND | ND | 2 of 9 (4.04) |
| T28G S52C I58W | 3.96 / ND / 4.71 | 4.33 | 2 of 9 (4.49) |
| D30V D31V N54V | ND / ND / ND | ND | 0 of 9 |
| S52H F106N | 5.01 / ND / 5.04 | 5.02 | 5 of 9 (4.35) |
| M34T I51F Y108K | 4.57 / ND / 5.58 | 5.08 | 3 of 9 (4.45) |
| S52T A61S S63H | 4.11 / ND / ND | 4.11 | 1 of 9 (5.19) |
| F29C I51G Y60D | 4.71 / ND / 5.48 | 5.09 | 4 of 9 (5.03) |
| H35W D62I V99K | ND / ND / 4.06 | 4.06 | 0 of 9 |
| S55W G100I Y105N | ND / ND / ND | ND | 0 of 9 |
| G26Q D31Y G100H | 4.30 / ND / ND | 4.30 | 0 of 9 |
| T28C S55N Y108K | 3.79 / 3.30 / ND | 3.54 | 1 of 9 (3.29) |
| Y32H S63V G104K | 5.18 / ND / ND | 5.18 | 2 of 9 (4.81) |
| W53E K65Q G100Q | ND / ND / 4.67 | 4.67 | 2 of 9 (5.34) |
| G59Y V64P F106K | 5.30 / ND / 4.08 | 4.69 | 4 of 9 (4.56) |
| S55Q G104C | 4.62 / 6.02 / 6.00 | 5.55 | 6 of 9 (5.32) |
| G26L F27I I58E | 3.99 / ND / ND | 3.99 | 3 of 9 (3.57) |
| I51N W53Y V64A | 5.16 / ND / ND | 5.16 | 2 of 9 (5.53) |
| F29D S55M | ND / ND / ND | ND | 1 of 9 (4.22) |
| A33H S63I Y105T | ND / ND / ND | ND | 0 of 9 |
| Y32E N54M I58K | ND / ND / 4.06 | 4.06 | 1 of 9 (4.60) |
| D30E V64L V99C | ND / ND / ND | ND | 1 of 9 (3.84) |
| D31H A33D G104A | ND / 4.33 / ND | 4.33 | 1 of 9 (2.47) |
| D62P V64H Y105L | 2.65 / 3.49 / 2.95 | 3.03 | 3 of 9 (3.78) |
| N54V G56W D107M | ND / ND / ND | ND | 1 of 9 (2.70) |

Excerpt, the first 5 entries:

| changes | log10 Kd, replicates | mean log10 Kd (nM) | empty controls |
|---|---|---|---|
| W53G Y105T Y108N | 4.81 / 6.40 / 5.32 | 5.51 | 7 of 9 (5.12) |
| G56P G59M Y108C | ND / ND / ND | ND | 0 of 9 |
| F29M Y60M A61W | ND / ND / ND | ND | 1 of 9 (2.97) |
| D31E A61L D62W | ND / 2.32 / ND | 2.32 | 0 of 9 |
| H35E S55C D107I | 3.38 / ND / 4.84 | 4.11 | 3 of 9 (5.12) |

The measurements come from Engelhart et al. 2022 (doi:10.1038/s41597-022-01779-4) through the FLAb antibody collection.